Settings: in vivo

CN1CC[C@]23c4c5ccc(O)c4O[C@H]2C(=O)CC[C@H]3[C@H]1C5 [Hydromorphone, hydromorphone]
effect of docusate on the pharmacokinetics: no significant effect
